The test concerns the target cathepsin D (Homo sapiens, UniProt P07339). Description: Inhibition of cathepsin D enzyme activity by a known inhibitor using the method of the invention. It counts as biochemical. The note with it: in the presence of 12 nM inhibitor. The text has this:
Assays may be performed according to the present invention in high throughput screening applications, including those in which test agents are screened for their inhibitory effects, potentiation effects, agonistic, or antagonistic effects on the enzyme reaction under investigation. Thus, in a preferred embodiment according to the second aspect, there is provided a method of screening for a test agent whose effect upon the activity of an enzyme in cleaving a substrate is to be determined. […]
The test agent may be, for example, any organic or inorganic compound such as a synthetic molecule or a natural product (e.g. peptide, oligonucleotide), or a may be an energy form (e.g. light or heat or other forms of electromagnetic radiation). Inhibitors of enzyme activity can be detected using the method according to the preferred embodiment; for example, the known inhibitor pepstatin A can be readily shown to inhibit cathepsin D enzyme activity using the method of the invention. […]
As an example, an assay for the detection of proteolytic enzyme activity may be configured as follows. […] Upon addition of enzyme, typically the reaction is allowed to proceed to completion, progress being monitored by observing the steady state fluorescence emission due to the fluorescent acceptor dye, which is recorded using a spectrofluorimeter. […]

Amino acid sequences for entries named in this document (tags omitted). Residues count along the entry.
UniProt P07339, 65-412, species assumed: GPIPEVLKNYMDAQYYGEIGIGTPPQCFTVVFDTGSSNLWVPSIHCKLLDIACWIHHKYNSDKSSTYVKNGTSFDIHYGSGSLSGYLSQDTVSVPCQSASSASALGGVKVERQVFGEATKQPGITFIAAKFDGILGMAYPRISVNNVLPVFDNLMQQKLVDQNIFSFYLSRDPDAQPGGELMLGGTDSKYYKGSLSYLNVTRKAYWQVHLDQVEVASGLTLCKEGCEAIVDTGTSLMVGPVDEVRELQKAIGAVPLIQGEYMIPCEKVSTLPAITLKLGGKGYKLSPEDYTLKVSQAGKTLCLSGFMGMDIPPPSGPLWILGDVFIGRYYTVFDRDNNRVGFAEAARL

Results on one compound are retold here after US20120208223A1, “FL[…] ENERGY TRANSFER ENZYME SUBSTRATES” (GE […], priority 2004, published 2012).

In the case of `CC(C)CC(=O)N[C@H](C(=O)N[C@H](C(=O)N[C@@H](CC(C)C)[C@@H](O)CC(=O)N[C@@H](C)C(=O)N[C@@H](CC(C)C)[C@@H](O)CC(=O)O)C(C)C)C(C)C` [pepstatin A], the “cathepsin D activity, fold less than in the absence of the inhibitor” value is around 5 fold.
